The values that follow come from BindingDB's records for patent US10221162 (Amgen, 2019).

The test deals with T1, Apelin receptor (Homo sapiens, UniProt P35414).
T1 sequence (P35414 whole entry): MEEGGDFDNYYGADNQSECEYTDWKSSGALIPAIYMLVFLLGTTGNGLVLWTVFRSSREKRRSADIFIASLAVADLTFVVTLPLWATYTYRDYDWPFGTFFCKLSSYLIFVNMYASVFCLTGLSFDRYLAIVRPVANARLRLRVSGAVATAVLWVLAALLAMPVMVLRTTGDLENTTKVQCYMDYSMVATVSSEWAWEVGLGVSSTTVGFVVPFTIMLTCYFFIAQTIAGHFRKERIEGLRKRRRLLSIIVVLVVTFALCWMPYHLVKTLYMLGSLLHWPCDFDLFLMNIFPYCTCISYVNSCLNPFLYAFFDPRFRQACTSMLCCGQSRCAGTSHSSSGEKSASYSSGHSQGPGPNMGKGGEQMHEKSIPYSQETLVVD
In words: [35S]GTPgammaS Binding Assay. As for the experimental part: A GTPγS binding assay was performed on membranes prepared from CHO cells stably expressing human APJ receptor. The optimum experimental conditions for the concentrations of GDP, MgCl2, and NaCl in the assay buffer were initially determined. The assay was performed in assay buffer [20 mM HEPES, pH 7.5, 5 mM MgCl2, and 0.1% (w/v) BSA with 200 mM NaCl, 3 μM GDP] and membranes expressing human APJ receptor/well along with WGA PS beads. The reaction was initiated by addition of 0.2 nM [35S]GTPγS (Perkin Elmer Life and Analytical Sciences, Waltham USA) in the absence or presence of various ligands and incubated at RT for 90 min.
In general terms: GTPγS resists hydrolysis and so accumulates on activated G proteins.

In the case of `C/C=C(/C)B1OC(C)(C)C(C)(C)O1` [US10221162, Example 671.0], the EC50 (commonly the midpoint of the concentration-response curve) was determined as 9.2 nM. This lies in the single-digit nanomolar range.
